Laboratory results reported in US11579147B2, “Use of VNN1 as a biomarker and a therapeutic target in sarcomas” (INSERM (Institut National de la Santé et de la Recherche …, priority 2017, dated 2023).

Key:
R tumors = experiment: tumor growth in C57BL/6 mice grafted with R cells; settings: mouse, in vivo
R/VR chimeric tumors = settings: mouse, in vivo

## CC(C)(CO)C(O)C(=O)NCCC(=O)NCCSSCCNC(=O)CCNC(=O)C(O)C(C)(C)CO (centres unmarked) [pantethine, N-[2-[2-[2-[3-(2,4-Dihydroxy-3,3-dimethyl-butanoyl)aminopropanoylamino]ethyldisulfanyl]ethylcarbamoyl]ethyl]-2,4-dihydroxy-3,3-dimethyl-butanamide]
R tumors
  growth of R tumors: reduce the growth of R tumors
R/VR chimeric tumors
  growth of R/VR chimeric tumors: inhibitory effect is further enhanced
